Target: T1, rat GALR2 receptor (Rattus norvegicus, UniProt O08726)
T1 sequence (O08726 1-372): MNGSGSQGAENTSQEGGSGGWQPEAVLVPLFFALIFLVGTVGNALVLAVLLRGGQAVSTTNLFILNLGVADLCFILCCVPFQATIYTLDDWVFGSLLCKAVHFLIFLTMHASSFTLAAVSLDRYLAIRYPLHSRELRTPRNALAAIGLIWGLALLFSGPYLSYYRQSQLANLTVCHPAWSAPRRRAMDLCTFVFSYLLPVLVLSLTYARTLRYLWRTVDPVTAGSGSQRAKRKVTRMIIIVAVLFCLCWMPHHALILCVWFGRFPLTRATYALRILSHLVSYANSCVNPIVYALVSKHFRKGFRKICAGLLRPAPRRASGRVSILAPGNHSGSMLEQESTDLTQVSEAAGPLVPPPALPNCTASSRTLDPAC
Assay: PI hydrolysis in CHO cells stably transfected with rat GALR2 (C-rGalR2-79)

CC(C)C[C@H](NC(=O)[C@H](CC(C)C)NC(=O)[C@@H](Cc1c[nH]c2ccccc12)NC(=O)[C@H](Cc1ccccc1)NC(=O)[C@@H](Cc1c[nH]c2ccccc12)NC(=O)[C@H](CCC(N)=O)NC(=O)[C@H](CCC(N)=O)NC(=O)[C@@H]1CCCN1C(=O)[C@H](CCCCN)NC(=O)[C@@H]1CCCN1C(=O)[C@@H](CCCNC(=N)N)NC(=O)[C@@H]1CCCN1C(=O)CNC(=O)[C@H](CC(C)C)NC(=O)[C@H](CC(C)C)NC(=O)[C@H](Cc1ccc(O)cc1)NC(=O)CNC(=O)[C@H](C)NC(=O)[C@H](CO)NC(=O)[C@H](CC(N)=O)NC(=O)[C@H](CC(C)C)NC(=O)[C@@H](NC(=O)[C@H](Cc1c[nH]c2ccccc12)NC(=O)CN)[C@@H](C)O)C(N)=O [Peptide C7, C7] gave an EC50 of 11 nM.

From US6586191B2 (dated 2003)
